# Reference: patent US9914731B2, “Pyrazolo[1,5-a]pyridine derivatives and methods of their use” (Ignyta, Inc., priority 2013, dated 2018)
# Chains of the proteins cited; added tags and fusions are not shown. Residues count along the entry.
# UniProt P30530, 26-894: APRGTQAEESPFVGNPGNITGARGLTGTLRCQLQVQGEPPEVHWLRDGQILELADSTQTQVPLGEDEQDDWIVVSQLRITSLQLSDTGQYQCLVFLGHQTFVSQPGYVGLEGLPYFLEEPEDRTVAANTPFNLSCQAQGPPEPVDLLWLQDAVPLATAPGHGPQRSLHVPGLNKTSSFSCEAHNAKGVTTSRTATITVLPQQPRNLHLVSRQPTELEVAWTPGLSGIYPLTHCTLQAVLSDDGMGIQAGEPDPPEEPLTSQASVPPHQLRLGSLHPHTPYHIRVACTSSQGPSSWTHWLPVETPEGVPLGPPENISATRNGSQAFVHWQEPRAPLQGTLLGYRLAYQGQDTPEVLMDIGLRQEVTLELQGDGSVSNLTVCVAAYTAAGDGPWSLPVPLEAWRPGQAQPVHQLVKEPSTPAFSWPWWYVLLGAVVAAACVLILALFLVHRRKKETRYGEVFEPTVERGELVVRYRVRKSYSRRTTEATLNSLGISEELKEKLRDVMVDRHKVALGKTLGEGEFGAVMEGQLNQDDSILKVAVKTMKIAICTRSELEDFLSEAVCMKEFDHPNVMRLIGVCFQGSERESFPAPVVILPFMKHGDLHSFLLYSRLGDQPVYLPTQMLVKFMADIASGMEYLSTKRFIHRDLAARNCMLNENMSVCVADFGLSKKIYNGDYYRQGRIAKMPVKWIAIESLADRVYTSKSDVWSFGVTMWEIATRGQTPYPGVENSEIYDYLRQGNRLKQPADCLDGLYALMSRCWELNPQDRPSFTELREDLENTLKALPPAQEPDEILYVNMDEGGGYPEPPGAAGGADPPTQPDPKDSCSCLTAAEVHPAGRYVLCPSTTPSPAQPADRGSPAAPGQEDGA
# pIC50: −log10 of the molar value.
# Biological target: recombinant human baculovirus-expressed AXL (Homo sapiens (Human), UniProt P30530)
# Assay: AXL kinase assay (HTRF KinEASE)
# Assay type: biochemical
# Conditions: average of two or more determinations
compound,measurement,value
"CCOc1ccn(-c2ccc(F)cc2)c(=O)c1C(=O)Nc1ccc(Oc2cc(-c3cn(C)cn3)cn3nccc23)c(F)c1 [Example 112, 4-Ethoxy-1-(4-fluoro-phenyl)-2-oxo-1,2-dihydro-pyridine-3-carboxylic acid {3-fluoro-4-[6-(1-methyl-1H-imidazol-4-yl)-pyrazolo[1,5-a]pyridin-4-yloxy]-phenyl}-amide]",pIC50,> 8.00
